According to patent US7276233B2, “Methods of treating neoplasia with combinations of target cell-specific adenovirus and chemotherapy” (priority 2001, dated 2007):

What was measured:
Hep3B cells = test: Cell viability assay (MTT) and isobologram, CV890 with doxorubicin; conditions: doxorubicin at 10 ng/ml alone
[1] = test system: Hep3B hepatoma xenografts; test: Hep3B xenograft, CV790 or CV890 with doxorubicin (Example 5); assay type: in vivo, nude mice; conditions: virus 1×10^11 particles i.v. alone or doxorubicin 10 mg/kg alone, time printed as week 6 / 4 weeks after treatment
Source text: CV790 is an AFP producing hepatocellular carcinoma specific adenovirus, with E1A and E1B under the control of an identical AFP promoter (827 bp) and enhancer with an E3 region. The CV890 adenovirus construct is also a hepatoma or liver-specific adenoviral mutant with the E1A and E1B genes under transcriptional control of 827 bp AFP promoter, wherein E1B is under translational control of EMCV IRES and having an intact E3 region. The structure of CV890 therefore reads as AFP/E1A, IRES/E1B, E2, E3, E4. In vivo studies of the efficacy of combinations of CV790 and doxorubicin and CV890 and doxorubicin were performed according to the protocols described in detail in Example 4, with minor alterations which are described below.
Xenografts in the study of CV790 and CV890 combined with chemotherapeutic agents utilized liver carcinoma Hep3B cells, instead of LNCaP prostate carcinoma. Virus, CV790 or CV890, was administered by a single intravenous injection of 1×10^11 particles through the tail veins of the nude mice. One day after virus delivery, a single dose of doxorubicin was given to each animal by i.p. injection. The doxorubicin dose was 10 mg/kg for both doxorubicin alone and doxorubicin combined with virus treatments. Tumor volume was measured once a week for six weeks according to the protocol in Example 4.

SMILES: COc1cccc2c1C(=O)c1c(O)c3c(c(O)c1C2=O)C[C@@](O)(C(=O)CO)C[C@@H]3O[C@H]1C[C@H](N)[C@H](O)[C@H](C)O1 [doxorubicin]
- cytotoxicity (Hep3B cells): did not generate cytotoxicity
- relative tumor volume ([1]; CV790 study): 280%
- relative tumor volume ([1]; CV890 study): 500%
